By UniProt entry, the sequences of proteins in these tests, tags left out. Where a name states a change or a piece, a line headed by the entry shows the natural chain unless it says otherwise.
UniProt Q12809: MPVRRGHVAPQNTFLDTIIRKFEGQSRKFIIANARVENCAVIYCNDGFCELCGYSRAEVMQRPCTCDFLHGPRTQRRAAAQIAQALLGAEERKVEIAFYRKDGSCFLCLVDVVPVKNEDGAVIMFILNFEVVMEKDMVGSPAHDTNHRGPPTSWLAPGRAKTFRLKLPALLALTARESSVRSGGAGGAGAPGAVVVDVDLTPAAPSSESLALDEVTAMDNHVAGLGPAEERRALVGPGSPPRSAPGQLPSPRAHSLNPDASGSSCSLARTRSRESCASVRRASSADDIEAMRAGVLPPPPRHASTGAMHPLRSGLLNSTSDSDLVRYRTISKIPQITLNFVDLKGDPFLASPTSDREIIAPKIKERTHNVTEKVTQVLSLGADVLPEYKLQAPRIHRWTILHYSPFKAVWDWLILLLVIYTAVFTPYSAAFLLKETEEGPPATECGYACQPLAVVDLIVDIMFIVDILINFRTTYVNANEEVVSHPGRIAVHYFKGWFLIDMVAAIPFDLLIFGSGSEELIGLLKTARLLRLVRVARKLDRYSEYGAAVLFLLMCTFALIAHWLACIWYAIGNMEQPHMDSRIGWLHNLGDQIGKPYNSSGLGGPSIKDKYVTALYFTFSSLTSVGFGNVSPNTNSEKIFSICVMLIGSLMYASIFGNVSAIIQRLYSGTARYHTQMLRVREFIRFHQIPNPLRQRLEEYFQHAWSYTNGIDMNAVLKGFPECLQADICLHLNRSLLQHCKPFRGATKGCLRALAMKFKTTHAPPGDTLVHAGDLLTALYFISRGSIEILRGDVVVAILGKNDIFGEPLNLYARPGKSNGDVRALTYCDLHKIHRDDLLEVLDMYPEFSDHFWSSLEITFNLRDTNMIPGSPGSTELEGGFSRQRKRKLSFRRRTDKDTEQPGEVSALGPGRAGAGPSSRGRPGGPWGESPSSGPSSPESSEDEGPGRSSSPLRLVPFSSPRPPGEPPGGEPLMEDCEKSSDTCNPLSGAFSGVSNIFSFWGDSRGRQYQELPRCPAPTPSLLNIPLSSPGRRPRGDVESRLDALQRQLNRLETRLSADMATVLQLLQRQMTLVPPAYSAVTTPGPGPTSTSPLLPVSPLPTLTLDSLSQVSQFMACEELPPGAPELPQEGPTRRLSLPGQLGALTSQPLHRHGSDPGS

In PMC5891061, “Electrophysiological mechanisms of vandetanib-induced cardiotoxicity: Comparison of action potentials in rabbit Purkinje fibers and pluripotent stem cell-derived cardiomyocytes” (PLoS ONE, 2018):

Key:
KCNJ2 (IK1) = target: T1, KCNJ2 (IK1) (Homo sapiens, UniProt P63252)
T1 sequence (P63252 1-427): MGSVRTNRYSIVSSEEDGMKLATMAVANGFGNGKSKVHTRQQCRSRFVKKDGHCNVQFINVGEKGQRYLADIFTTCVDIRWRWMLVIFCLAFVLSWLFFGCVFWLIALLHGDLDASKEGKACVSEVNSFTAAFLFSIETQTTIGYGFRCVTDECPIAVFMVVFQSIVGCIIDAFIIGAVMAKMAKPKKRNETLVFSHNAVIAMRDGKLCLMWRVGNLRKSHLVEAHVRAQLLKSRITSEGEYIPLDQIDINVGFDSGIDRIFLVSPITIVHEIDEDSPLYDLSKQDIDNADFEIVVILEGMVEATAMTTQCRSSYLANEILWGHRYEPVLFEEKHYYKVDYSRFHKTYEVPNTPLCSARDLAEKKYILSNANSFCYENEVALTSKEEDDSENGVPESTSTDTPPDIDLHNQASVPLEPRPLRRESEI

hERG (IKr) = hERG (IKr) (Homo sapiens, UniProt Q12809); test: Whole-cell patch clamp, IhERG tail current in transfected HEK293 cells

COc1cc2c(Nc3ccc(Br)cc3F)ncnc2cc1OCC1CCN(C)CC1 [Vandetanib]
Effect on IK1 currents (KCNJ2 (IK1)): not significantly modified; also recorded: No effect | IhERG current (hERG (IKr); 0.3 μM): 1125.9 ± 194.1 | IhERG current (hERG (IKr); 3 μM): 319.6 ± 47.4

“Also recorded” adds a separate entry of the source.
